Results taken from publication PMC3171608 (Bioorganic & medicinal chemistry, 2011).

System: chromokinesin
Details: panel of mitotic kinesins; data not shown

N[C@H](CO)CSC(c1ccccc1)(c1ccccc1)c1ccccc1 [Compound 4, (R)-2-amino-3-(tritylthio)propan-1-ol]
Inhibitory activity against chromokinesin: no measurable inhibition detected
